Values quoted from earlier work as cited in article PMC4579270, “Identification and Characterization of an Irreversible Inhibitor of CDK2” (Chemistry & Biology, 2015).

Test system: CDK2
Details: ref Hardcastle et al., 2004; cited from earlier work

## CS(=O)(=O)c1ccc(Nc2nc(OCC3CCCCC3)c3nc[nH]c3n2)cc1 [NU6155, 6-(cyclohexylmethoxy)-N-(4-(methylsulfonyl)phenyl)-9H-purin-2-amine]
  inhibition of CDK2 (in words): nanomolar
